Literature values as cited in US11852634B2, “Use of AKT phosphorylation as a biomarker for prognosing neurodegenerative diseases and treating same” (Yeda Research and Development Co. Ltd., priority 2011, dated 2023).

Tested on: ALS
Settings: ALS patients, estimated; cited from earlier work

## Nc1nc2ccc(OC(F)(F)F)cc2s1 [Riluzole]
  Extension in patient survival: three
